IC50 and Kis data for one compound are collected here from ChEMBL document CHEMBL1933039, “6-alkylsalicylates are selective Tip60 inhibitors and target the acetyl-CoA binding site” (Eur J Med Chem, 2012).

The chains behind the UniProt entries cited, without tags or fusion partners.
UniProt Q92993, whole entry: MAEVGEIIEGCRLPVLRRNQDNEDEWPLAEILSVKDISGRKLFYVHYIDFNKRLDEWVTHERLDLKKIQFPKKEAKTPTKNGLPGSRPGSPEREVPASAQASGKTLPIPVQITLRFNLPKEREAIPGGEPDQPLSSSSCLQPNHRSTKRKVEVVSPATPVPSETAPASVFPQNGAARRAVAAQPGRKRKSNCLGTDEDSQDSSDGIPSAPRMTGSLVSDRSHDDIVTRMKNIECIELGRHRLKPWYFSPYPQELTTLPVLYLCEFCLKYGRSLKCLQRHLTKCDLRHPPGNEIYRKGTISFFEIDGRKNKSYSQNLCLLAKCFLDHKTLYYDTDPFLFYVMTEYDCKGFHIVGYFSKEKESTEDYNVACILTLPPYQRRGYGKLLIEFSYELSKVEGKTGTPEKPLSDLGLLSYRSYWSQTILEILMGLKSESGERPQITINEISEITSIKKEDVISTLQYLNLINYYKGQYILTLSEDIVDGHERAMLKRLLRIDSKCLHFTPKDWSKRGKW

What is called IC50 is the concentration at which inhibition is half-maximal.

Test [1] has as its target T1, Histone acetyltransferase KAT5 (Homo sapiens, UniProt Q92993). Description: Inhibition of human recombinant His-tagged Tip60 expressed in Escherichia coli BL21(DE3) cells using [14C]Ac-AoA and histone H4 as substrate after 5 mins by scintillation counting.
For test [2], the target named is T1, Histone acetyltransferase KAT5.
Test [3] has the same target. This is another data set of the same source.

Bounds are passed on as bounds.

For `CCCCCCCc1ccc(CCc2cccc(O)c2C(=O)O)cc1`, in test [1], the IC50 amounted to 74 µM. Moreover, the Kis in test [2] is 54 µM; in test [3] it was over 660 µM.
